From patent US20230172895A1, “METHODS OF TREATING OR PREVENTING ORGANOPHOSPHORUS POISONING” (published 2023)
Marks after values point to notes of the source that are not given here.

Sequences of proteins named here, by UniProt entry; tags and fusion partners are left off. A change or cut given only in a name is not applied to a line headed by its entry.
UniProt P22303: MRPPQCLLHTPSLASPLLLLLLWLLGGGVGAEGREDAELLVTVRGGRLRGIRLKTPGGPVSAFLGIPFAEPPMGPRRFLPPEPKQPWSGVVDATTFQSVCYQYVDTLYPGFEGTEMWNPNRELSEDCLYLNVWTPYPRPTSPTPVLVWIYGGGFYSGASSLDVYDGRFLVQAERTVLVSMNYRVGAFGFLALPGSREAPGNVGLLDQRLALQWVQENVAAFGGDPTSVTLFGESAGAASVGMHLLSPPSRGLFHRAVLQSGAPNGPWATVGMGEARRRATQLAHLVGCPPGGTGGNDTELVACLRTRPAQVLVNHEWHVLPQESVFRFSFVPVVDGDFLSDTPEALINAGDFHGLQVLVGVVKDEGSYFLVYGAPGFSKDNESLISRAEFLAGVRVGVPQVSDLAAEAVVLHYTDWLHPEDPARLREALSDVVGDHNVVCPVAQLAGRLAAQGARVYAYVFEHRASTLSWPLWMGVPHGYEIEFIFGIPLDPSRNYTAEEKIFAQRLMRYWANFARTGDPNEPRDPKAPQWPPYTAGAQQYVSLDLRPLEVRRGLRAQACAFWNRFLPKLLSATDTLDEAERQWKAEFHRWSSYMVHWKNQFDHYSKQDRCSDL
UniProt P06276: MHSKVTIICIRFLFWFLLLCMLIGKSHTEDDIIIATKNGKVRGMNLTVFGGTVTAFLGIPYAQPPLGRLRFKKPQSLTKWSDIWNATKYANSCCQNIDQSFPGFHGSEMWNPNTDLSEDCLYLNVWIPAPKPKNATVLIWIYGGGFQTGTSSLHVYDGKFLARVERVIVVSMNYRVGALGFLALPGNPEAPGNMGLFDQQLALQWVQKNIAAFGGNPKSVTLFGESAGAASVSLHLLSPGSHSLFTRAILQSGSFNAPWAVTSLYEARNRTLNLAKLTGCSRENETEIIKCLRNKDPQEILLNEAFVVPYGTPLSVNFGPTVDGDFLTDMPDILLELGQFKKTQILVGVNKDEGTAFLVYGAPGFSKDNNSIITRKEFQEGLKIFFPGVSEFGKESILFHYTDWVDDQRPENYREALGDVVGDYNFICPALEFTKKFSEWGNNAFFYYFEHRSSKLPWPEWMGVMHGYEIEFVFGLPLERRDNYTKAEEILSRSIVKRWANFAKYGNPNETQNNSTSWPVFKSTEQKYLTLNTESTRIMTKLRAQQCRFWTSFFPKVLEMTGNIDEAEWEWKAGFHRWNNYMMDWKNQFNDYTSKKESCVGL

Columns and labels:
[1] = Alzheimer's patients; 24 or 32 mg per day or 16 mg per day; cited from earlier work
[2] = cited from earlier work
[3] = Gobburu et al., 2001; cited from earlier work
[4] = target: AChE in CSF (Homo sapiens, UniProt P22303); conditions: oral; rivastigmine average 8.8 mg/d over 13 weeks, galantamine average 20.8 mg/d; cited from earlier work
[5] = target: BuChE in CSF (Homo sapiens, UniProt P06276); conditions: oral; rivastigmine average 8.8 mg/d over 13 weeks, galantamine average 20.8 mg/d; cited from earlier work
[6] = target: AChE (Homo sapiens, UniProt P22303); conditions: in humans, Cutler et al., 1998, Polinsky; cited from earlier work
[7] = Rivastigmine plasma to CSF partition; conditions: expected at intranasal plasma Cmax of at least 7.5 ng/ml (7.5×0.398)
[8] = Safety and adverse events in the single-dose crossover study
[9] = target: CSF AChE (Homo sapiens, UniProt P22303); assay: Estimated CSF AChE inhibition from CSF rivastigmine (Michaelis-Menten relation, FIG. 4)
[10] = target: plasma BuChE (Homo sapiens, UniProt P06276); assay: Estimated plasma BuChE inhibition from plasma rivastigmine (Michaelis-Menten relation, FIG. 3)
[11] = Single-dose crossover pharmacokinetic study of rivastigmine nasal spray and Exelon oral capsule; plasma rivastigmine and NAP226-90 by LC/MS/MS; conditions: for mean Cmax: mean ±SD
[12] = intranasal administration, 4 mg single dose
[13] = intranasal AUC of about 40 ng.h/mL over about 12 hours
[14] = mean, 3 mg oral capsule (Exelon), n=16
[15] = mean, 4 mg rivastigmine nasal spray, n=16
[16] = min-max, 3 mg oral capsule (Exelon), n=16
[17] = min-max, 4 mg rivastigmine nasal spray, n=16
[18] = oral route, 3 mg Exelon capsule

Compound: COc1ccc2c3c1O[C@H]1C[C@@H](O)C=C[C@@]31CCN(C)C2
- adverse side effects [1]: adverse side effects, such as nausea, vomiting and diarrhea

Compound: C[C@@H](c1cccc(O)c1)N(C)C
- NAP226-90 to rivastigmine plasma ratio ([2]; oral administration of rivastigmine, Kurz et al., (2009)): greater than one
- NAP226-90 to rivastigmine ratio previously measured ([2]; transdermal patch): 0.67

Compound: rivastigmine
- rivastigmine plasma to CSF partition coefficient (PC) [3]: 0.398
- decreased activity of AChE in CSF [4]: 42.6%
- decreased activity of BuChE in CSF [5]: 45.6%
- half-life ([2]; humans): 60 to 120 min
- absolute oral bioavailability ([2]; oral, dose of 3 mg, Hossain et al., 2002): about 35%
- median FI (fluctuation index) ([2]; transdermal patch, Kurz et al. 2009, Lefevre et al. 2008): 0.7
- time the carbamyl moiety remains bound to AChE [6]: about 8.5 h
- CSF rivastigmine Cmax [7]: about 3 ng/mL
- nausea [8, 12]: 6%
- vomiting or diarrhoea [8, 12]: no vomiting or diarrhoea
- vomiting ([8]; oral dosing, 3 mg, 34 minutes after dosing, same participant did not vomit after intranasal dosing): One participant vomited
- participants with treatment-emergent adverse events ([8]; oral treatment, 3 mg single dose, n=16, one mild nausea, two mild dizziness): three
- maximal inhibition of CSF AChE ([9]; expected at 3 ng/mL CSF rivastigmine Cmax, from FIG. 4 (Cutler et al., 1998 data)): about 50%
- average CSF AChE inhibition [9, 13]: about 35%
- maximal inhibition of plasma BuChE ([10]; expected at intranasal plasma rivastigmine Cmax of at least 7.5 ng/ml, healthy males, from FIG. 3 (Lefèvre et al., 2009 data)): about 40%
- average plasma BuChE inhibition [10, 13]: about 26%
- mean rivastigmine FI ([11]; after intranasal administration, p<0.005 vs oral): 5.3
- mean rivastigmine FI ([11]; after oral administration): 3.8
- ratio of geometric mean rivastigmine AUC0-∞ intranasal (3 mg equivalent) / oral ([11]; dose-adjusted intranasal vs oral): 1.9
- AUC (0, ∞)OR [geometric mean] ([11]; geometric mean, 3 mg oral capsule (Exelon), n=16): 13.2 ng·h/mL
- AUC (0, ∞)NS [geometric mean] ([11]; geometric mean, 4 mg rivastigmine nasal spray, n=16): 33.9 ng·h/mL
- Cmax, OR [geometric mean] ([11]; geometric mean, plasma, 3 mg oral capsule (Exelon), n=16): 6.0 ng/mL
- Cmax, NS [geometric mean] ([11]; geometric mean, plasma, 4 mg rivastigmine nasal spray, n=16): 11.1 ng/mL
- mean (±SD) Tmax ([11]; intranasal formulation, 4 mg): 42 ± 18 min
- mean Cmax ([11]; intranasal formulation, 4 mg): 13.8 ± 10.8 ng/mL
- geometric mean rivastigmine AUC0-∞ ([11]; intranasal, 4 mg (before dose adjustment)): 33.9 ng·h/mL
- geometric mean rivastigmine AUC0-∞ adjusted to an equivalent 3 mg dose ([11]; intranasal, 33.9×3/4): 25.4 ng·h/mL
- t1/2, OR ([11]; listed as Mean (value marked a = median), 3 mg oral capsule (Exelon), n=16): 1.1^a h
- t1/2, NS ([11]; listed as Mean, 4 mg rivastigmine nasal spray, n=16): 176 min
- AUC (0, ∞)OR [11, 14]: 19.6 ng·h/mL
- FI, OR (Fluctuation Index) [11, 14]: 3.8
- tmax, OR [11, 14]: 72 min
- AUC (0, ∞)NS [11, 15]: 41.1 ng·h/mL
- FI, NS (Fluctuation Index) [11, 15]: 5.3
- tmax, NS [11, 15]: 42 min
- Cmax, OR ([11]; mean, plasma, 3 mg oral capsule (Exelon), single dose, healthy young adult men n=16): 8.4 ng/mL
- Cmax, NS ([11]; mean, plasma, 4 mg rivastigmine nasal spray (one spray each nostril), single dose, healthy young adult men n=16): 13.8 ng/mL
- AUC (0, ∞)OR Min-max [11, 16]: 1.7 to 51.0 ng·h/mL
- FI, OR Min-max [11, 16]: 2.4-6.3
- t1/2, OR Min-max [11, 16]: 48 to 132 min
- tmax, OR Min-max [11, 16]: 30 to 120 min
- AUC (0, ∞)NS Min-max [11, 17]: 8.7 to 106.8 ng·h/mL
- FI, NS Min-max [11, 17]: 3.0-8.5
- t1/2, NS Min-max [11, 17]: 78 to 474 min
- tmax, NS Min-max [11, 17]: 18 to 90 min
- Cmax, OR Min-max ([11]; min-max, plasma, 3 mg oral capsule (Exelon), n=16): 1.1 to 26.8 ng/mL
- Cmax, NS Min-max ([11]; min-max, plasma, 4 mg rivastigmine nasal spray, n=16): 3.1 to 49.0 ng/mL
- mean (±SD) Tmax [11, 18]: 72 ± 30 min
- mean Cmax [11, 18]: 8.4 ± 6.8 ng/mL
- geometric mean rivastigmine AUC0-∞ ([11]; oral, 3 mg): 13.2 ng·h/mL
